Assay results from paper PMC13730216, “Membrane protein solubilization and structure determination using de novo–designed proteins” (2026).

Amino acid sequences for entries named in this document (tags omitted). Residues count along the entry.
UniProt P0A910, 22-197 limits assumed: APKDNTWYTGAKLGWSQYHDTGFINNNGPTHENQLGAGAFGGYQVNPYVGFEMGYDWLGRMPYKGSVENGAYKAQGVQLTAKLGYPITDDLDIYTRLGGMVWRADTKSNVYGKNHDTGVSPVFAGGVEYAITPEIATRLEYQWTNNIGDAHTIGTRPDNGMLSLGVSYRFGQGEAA

Target: WRAP-OmpA (helical WRAPed OmpA) (Escherichia coli, UniProt P0A910)
Assay: native MS and MS/MS
Conditions: 10 uM protein, 1 mM ligand; 0.5 M ammonium acetate pH 6.9; complex with two chitobiose adducts selected (14+)
Description: native MS and MS/MS on WRAP-OmpA (helical WRAPed OmpA) | Native mass spectrometry (MS) confirmed that WRAP-OmpA binds chitobiose, a native OmpA ligand

With `CC(=O)N[C@H]1[C@H](O[C@H]2[C@H](O)[C@@H](NC(C)=O)C(O)O[C@@H]2CO)O[C@H](CO)[C@@H](O)[C@@H]1O` (stereo partly shown) the “native MS and MS/MS” value was “Native mass spectrometry (MS) confirmed that WRAP-OmpA binds chitobiose, a native OmpA ligand”.
